Values quoted from earlier work, collected in patent US9687529B2, “Method of controlling coagulation” (Duke University, priority 2011, dated 2017).

Target: thrombin (Homo sapiens, UniProt P00734)
Details: cited from earlier work

In the case of CC1CNc2c(cccc2S(=O)(=O)N[C@@H](CCCNC(=N)N)C(=O)N2CC[C@@H](C)C[C@@H]2C(=O)O)C1 (stereo partly shown) [argatroban], the Kd is given as about 40 nM.
